Source: paper PMC12064818, “A general assay platform to study protein pharmacology using ligand-dependent structural dynamics” (Nature Communications, 2025)

Tests used:
PKA-N-HiBiT = PKA-N-HiBiT (Homo sapiens, UniProt P17612)
[1] = target: T1, ABL1-N-HiBiT kinase domain (Homo sapiens, UniProt P00519); details: for EC50: read-out: SDR Ave SDR50
[2] = target: T1, ABL1-N-HiBiT kinase domain; assay: ABL1 peptide phosphorylation, Kinase-Glo Plus (KGP) assay, ABL1-N-HiBiT

Row | Substance | SDR Ave Max Response (PKA-N-HiBiT) | ABL1 SDR pSDR50 [1] | SDR Ave Max Response [1] | EC50 [1] | ABL1 KGP pIC50 [2] | IC50 ([2]; read-out: ABL1 KGP Ave IC50)
1 | PHA-665752 | -38.24 | 5.72 | 26.87 | 1920 nM |  | 
2 | TAE-684 |  | 6.11 | 92.26 | 770 nM | 4.79 | 17100 nM
